# High-throughput results (PubChem)
# Rows were chosen to be rich in hits. Some 2.4% of all compounds tested hit in one or more screens of this group.
# ELG1 DNA repair: inhibitors of ELG1-dependent DNA repair in HEK293T cells; Potency, µM (doses to about 46.1 µM), for inactives: top-dose activity change, negative = inhibition, hits mostly inhibitors; AID 504467; HEK293T ELG1-luciferase reporter, luminescence, 16 h; DNA damage induced by 5-fluorouridine; actives 2.3% (n = 330,000); note: % is set by controls: 0 for no effect and ±100 for the full control effect; nearly all actives have a fitted effect of over 55% in size
#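 In this reporter screen, reduction of luminescence relative to DMSO vehicle indicated activity. Compounds and 5-fluorouridine were added together to 2,000 cells per well, incubated for 16 hr at 37 °C, then developed with ONE-Glo.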
# Tb PFK block: inhibitors of T. brucei phosphofructokinase; Potency, µM (doses to about 57.5 µM), without a hit: at the highest dose activity, negative = inhibition, hits mostly inhibitors; T. brucei PFK, ADP-Glo luminescence; actives 0.17% (n = 330,000); O15648;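 note: 0% = uninhibited 1x PFK enzyme wells and -100% = no-enzyme wells; nearly all actives have a fitted effect of over 60% in size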
#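 In TEA buffer at pH 8.0 with 5 mM MgCl2, enzyme (1.25 nM) converted F6P (0.5 mM) and ATP (0.1 mM) for 45 min at room temperature. ADP product was read by luciferase luminescence.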
# Rango release inh: inhibitors of RanGTP-induced Rango-importin beta complex dissociation. actives 0.071% (n = 340,000). Biochemical FRET Rango-importin beta, RanGTP-induced dissociation. AID 540253. Potency, µM (titrated, usually from 46.1 µM), for inactives: top-dose activity change, negative = inhibition; calls by dose curve; note: % of control where 0% means no effect; nearly all actives have a fitted effect of over 45% in size
#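 Rango (0.1 uM)–importin beta (0.25 uM) complex; RanGTP-RCC1 trigger; 45 min RT; CFP/YFP FRET read.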
# Rango complex inh: prevents formation of the Rango-importin beta complex; Rango CFP/YFP FRET sensor + importin beta, 45 min; actives 0.031% (n = 340,000); AID 540263; Potency, µM (doses to about 92.2 µM), inactives show top-dose inhibition of complex formation; calls by dose curve;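 note: 0% = DMSO wells and 100% = buffer wells lacking importin beta; nearly all actives have a fitted effect of over 15% in size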
#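 Inhibition scored from the CFP 486 nm/YFP 530 nm FRET ratio 45 min after adding 0.125 microM importin beta to 50 nM Rango biosensor preincubated 5 min with compound (room temperature, PBS with DTT, Tween-20, BSA). No-importin wells as positive control.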
# PKM2 activator: activators of human pyruvate kinase M2 | purified PKM2, Kinase-Glo ATP luminescence, activation; response scale: 0% is enzyme alone, no compound | P14618 | Potency, µM (top dose mostly 57.5 µM), inactives show at the top dose activation, most hits filed as activators | actives 0.34% (n = 260,000); note: % is set by controls: 0 for no effect and ±100 for the full control effect; nearly all actives have a fitted effect of over 55% in size
#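 ATP formation by purified human PK-M2, quantified via coupled luciferase luminescence after 1 h at room temperature with 0.1 mM ADP and 0.5 mM PEP final.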
# Tb PGK inh: T. brucei PGK inhibition; PGK/GAPDH coupled, Kinase-Glo luminescence, 60 min; Potency, µM (series often up to 57.5 µM), without a hit: top-dose activity change, negative = inhibition, usual class: inhibitors; actives 0.043% (n = 380,000); note: % is set by controls: 0 for no effect and ±100 for the full control effect; nearly all actives have a fitted effect of over 60% in size
#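 Recombinant glycosomal PGK reaction used 1,3-bisphosphoglycerate generated in-well by GAPDH (100nM final) in 100mM TEA pH 7.6, 5mM MgCl2, 0.01% Tween-20. After 60 minutes at room temperature, ATP was read by Kinase-Glo Plus luminescence end-point.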
# * hit, by the source's call; i = inactive; ? = inconclusive; nt = not tested or not shown; [ ] = dose if it differs, or a comment. Unless noted, calls come from the whole dose curve; as a rule, active = well fitted curve in the direction sought with a large enough effect; inconclusive = small, poorly fitted or top-dose-only effect, or another doubt; inactive = no such curve, though single readings can be large; an effect the other way counts as inactive or inconclusive. Potency is the fitted concentration of half-maximal effect.
# Short forms: A = ELG1 DNA repair; B = Tb PFK block; C = Rango release inh; D = Rango complex inh; E = PKM2 activator; F = Tb PGK inh
COc1cccc(C2CC(C(F)(F)F)n3ncc(C(=O)NC(C)(C)C)c3N2)c1 (stereo not given)
  A: -17% | B: 1% | C: 5% | D: 6% | E: -2% | F: -3%

COc1ccc(C2CC(C(F)(F)F)n3ncc(C(=O)Nc4cccc(O)c4)c3N2)cc1OC (stereo not given)
  A: 15µM* | B: -5% | C: 1% | D: -1% | E: -19% | F: -1%

Cc1cc(OCC(=O)N(Cc2ccc(N(C)C)cc2)CC2CCCO2)ccc1Cl (stereo not given)
  A: nt | B: nt | C: nt | D: nt | E: nt | F: -2%

O=C(c1cc2cc(Cl)ccc2oc1=O)N1CCOCC1
  A: ? | B: 2% | C: -3% | D: 2% | E: 3% | F: 3%

NC(=S)c1cc2cc(Cl)ccc2oc1=O
  A: -10% | B: 3% | C: 10% | D: 26µM* | E: 9% | F: 5%

Cc1nc2sccn2c(=O)c1S(=O)(=O)Nc1cccc(Cl)c1C
  A: ? | B: -6% | C: 9% | D: 1% | E: 7.1µM* | F: -4%

Cc1ccc(NS(=O)(=O)c2c(C)nc3sccn3c2=O)cc1
  A: -5% | B: 1% | C: ? | D: -2% | E: 10µM* | F: 0%

COc1ccc(NC(=O)CCn2c(=O)c3cccn3c3cccnc32)c(OC)c1
  A: nt | B: nt | C: nt | D: nt | E: nt | F: -6%

COc1ccc(NC(=O)C2CCN(S(=O)(=O)c3ccc4c(c3)NC(=O)C(C)S4)CC2)cc1 (stereo not given)
  A: ? | B: -5% | C: -1% | D: 1% | E: nt | F: i

CC1Sc2ccc(S(=O)(=O)N3CCC(C(=O)Nc4ccc(Cl)cc4)CC3)cc2NC1=O (stereo not given)
  A: 4.6µM* | B: 1% | C: 6% | D: 0% | E: nt | F: i

# (more compounds)
# Short forms: A = ELG1 DNA repair; B = Tb PFK block; C = Rango release inh; D = Rango complex inh; E = PKM2 activator; F = Tb PGK inh
Cc1ccc(NC(=O)c2ccc(Nc3c([N+](=O)[O-])cc([N+](=O)[O-])cc3[N+](=O)[O-])cc2)cc1
  A: 7.3µM* | B: -3% | C: 6% | D: 0% | E: -1% | F: -13%

CCCOc1ccc(N2C(=O)CC(N3CCN(c4ccc([N+](=O)[O-])cc4)CC3)C2=O)cc1 (stereo not given)
  A: 2.1µM* | B: 0% | C: -7% | D: ? | E: 8% | F: 5%

CCOc1ccc(N2C(=O)CC(N3CCN(c4ccc([N+](=O)[O-])cc4)CC3)C2=O)cc1 (stereo not given)
  A: 5% | B: 6% | C: -5% | D: -1% | E: 0% | F: -6%

COc1ccc(CC(C)Nc2cccc(SC)c2)cc1 (stereo not given)
  A: -2% | B: -1% | C: -4% | D: 1% | E: 6% | F: 0%

O=S(=O)(Nc1nc2ccccc2nc1N1CCN(c2ccccc2F)CC1)c1ccc(Cl)cc1
  A: 18µM* | B: -1% | C: -8% | D: 0% | E: 0% | F: -9%

C/C(=C\c1ccc(C)o1)C(=O)c1c(C)cc(C)[nH]c1=O
  A: 1% | B: -6% | C: -6% | D: ? | E: 10µM* | F: -5%

C/C(=C\c1cccc(Br)c1)C(=O)c1c(C)cc(C)[nH]c1=O
  A: ? | B: 3% | C: -1% | D: 0% | E: nt | F: -3%

Cc1cc(C(=O)NCCc2ccc(Cl)cc2)c2c(C)nn(-c3ccccc3)c2n1
  A: nt | B: nt | C: nt | D: nt | E: nt | F: -2%

CC(C)(C)c1cc(=O)n(-c2ccccc2)[nH]1
  A: ? | B: 0% | C: 11% | D: 46µM* | E: -13% | F: -25%

COc1cc(C2CC(=O)c3cnc(N4CCN(Cc5ccccc5)CC4)nc3C2)cc(OC)c1OC (stereo not given)
  A: 3.3µM* | B: 0% | C: 3% | D: 0% | E: -2% | F: i

# Following part:
# Short forms: A = ELG1 DNA repair; B = Tb PFK block; C = Rango release inh; D = Rango complex inh; E = PKM2 activator; F = Tb PGK inh
CCc1ccc(Nc2nnc(SCC(=O)Nc3sccc3C(N)=O)s2)cc1
  A: ? | B: 3% | C: -1% | D: -5% | E: 0% | F: -3%

COc1cccc(Nc2nnc(SCC(=O)Nc3sccc3C(N)=O)s2)c1
  A: 15µM* | B: 1% | C: -6% | D: 2% | E: 2% | F: -1%

COc1cc(NC(=O)Cn2nc(C(F)(F)F)c(Br)c2C)cc([N+](=O)[O-])c1
  A: 18µM* | B: -6% | C: 1% | D: -2% | E: -1% | F: 2%

COc1ccc(CNC(=O)Cn2nc(C(F)(F)F)c(Br)c2C)cc1
  A: -7% | B: 0% | C: -4% | D: -2% | E: -3% | F: -8%

O=C(OCc1cccc(Cl)c1)c1cc(S(=O)(=O)N2CCCCC2)ccc1N1CCOCC1
  A: ? | B: -2% | C: 1% | D: -1% | E: 1% | F: i

CC(C)CCCC(C)NC(=O)c1cc(S(=O)(=O)N2CCCCC2)ccc1N1CCOCC1 (stereo not given)
  A: 11µM* | B: 0% | C: 10% | D: 1% | E: nt | F: i

O=C(OCCOc1cccc(Cl)c1)c1cc(S(=O)(=O)N2CCCCC2)ccc1N1CCOCC1
  A: 5.2µM* | B: -4% | C: -24% | D: 1% | E: nt | F: 10%

COCC(C)NC(=O)c1cc(S(=O)(=O)N2CCCCC2)ccc1N1CCOCC1 (stereo not given)
  A: 7% | B: -4% | C: -6% | D: 4% | E: -1% | F: 2%

Cc1ccc(N2CCN(Cc3nnc(-c4ccccc4F)o3)CC2)c(C)c1
  A: nt | B: nt | C: nt | D: nt | E: nt | F: -3%

CCn1c2c(c(=N)c3ccccc31)CCC2
  A: 21µM* | B: -2% | C: 14% | D: 0% | E: -12% | F: -2%

# (further entries)
# Short forms: A = ELG1 DNA repair; B = Tb PFK block; C = Rango release inh; D = Rango complex inh; E = PKM2 activator; F = Tb PGK inh
CCn1c2c(c(=N)c3c1CCC3)CCC2
  A: 0% | B: 2% | C: 12% | D: 2% | E: 4% | F: -2%

CCCCn1c2c(c(=N)c3c1CCC3)CCC2
  A: 1.6µM* | B: 1% | C: 21% | D: -10% | E: -9% | F: i

CCCCCCCCCn1c2c(c(=N)c3c1CCC3)CCC2
  A: ? | B: 1% | C: -7% | D: 3% | E: 0% | F: -5%

Cc1ccc(C)c(NS(=O)(=O)c2cc(C(=O)NCc3ccncc3)ccc2C)c1
  A: -3% | B: 1% | C: 9% | D: -1% | E: 3% | F: -4%

COc1ccccc1CCN1CCCC(CN(C)C(=O)c2ccoc2)C1 (stereo not given)
  A: 0% | B: -2% | C: 0% | D: 0% | E: nt | F: -8%

CN(Cc1cccc(F)c1)C(=O)c1ccc(S(=O)(=O)N2CCOCC2)cc1
  A: 8% | B: -9% | C: 8% | D: 1% | E: nt | F: i

CC(Oc1ccc2c(c1)oc(=O)c1ccccc12)C(=O)NCCN1CCOCC1 (stereo not given)
  A: 18% | B: -5% | C: -16% | D: -1% | E: 1%[0.46 µM] | F: -1%

CC(=O)c1c(C)[nH]c(C(=O)OCc2nc3ccsc3c(=O)[nH]2)c1C
  A: 22% | B: 8% | C: 0% | D: -1% | E: nt | F: -9%

COC(=O)c1ccc2c(=O)[nH]c(COC(=O)c3[nH]c(C)c(C(C)=O)c3C)nc2c1
  A: 5.8µM* | B: -5% | C: 1% | D: -2% | E: nt | F: -1%

CC(=O)c1c(C)[nH]c(C(=O)OCn2nnc3ccccc3c2=O)c1C
  A: 18µM* | B: -1% | C: -2% | D: 5% | E: 4% | F: -9%

CCCCC(=O)N1CCc2cc(OC)c(OC)cc2C1COc1ccc(OC)cc1 (stereo not given)
  A: nt | B: nt | C: nt | D: nt | E: nt | F: 4%

# Some of these compounds in order of count of non-hydrogen atoms, highest first.
# Short forms: A = ELG1 DNA repair; B = Tb PFK block; C = Rango release inh; D = Rango complex inh; E = PKM2 activator; F = Tb PGK inh
Cc1ccc(C)c(NS(=O)(=O)c2cc(C(=O)NCc3ccncc3)ccc2C)c1
  A: -3% | B: 1% | C: 9% | D: -1% | E: 3% | F: -4%

CN(Cc1cccc(F)c1)C(=O)c1ccc(S(=O)(=O)N2CCOCC2)cc1
  A: 8% | B: -9% | C: 8% | D: 1% | E: nt | F: i

CC(=O)c1c(C)[nH]c(C(=O)OCc2nc3ccsc3c(=O)[nH]2)c1C
  A: 22% | B: 8% | C: 0% | D: -1% | E: nt | F: -9%
